Values of other authors in US8426398B2 (Emory University, priority 2009, dated 2013).

Test system: KB-31 folate receptor-positive tumors
Settings: mouse, in vivo; cited from earlier work

**Q.** For ^18F-FDG, which “uptake in tumors (PET)” value is on record?
**A.** negligible
